The results in this text go back to patent US9273014B2 (dated 2016).

Amino acid sequences for entries named in this document (tags omitted). Residues count along the entry.
UniProt P46531, 19-2555 limits assumed: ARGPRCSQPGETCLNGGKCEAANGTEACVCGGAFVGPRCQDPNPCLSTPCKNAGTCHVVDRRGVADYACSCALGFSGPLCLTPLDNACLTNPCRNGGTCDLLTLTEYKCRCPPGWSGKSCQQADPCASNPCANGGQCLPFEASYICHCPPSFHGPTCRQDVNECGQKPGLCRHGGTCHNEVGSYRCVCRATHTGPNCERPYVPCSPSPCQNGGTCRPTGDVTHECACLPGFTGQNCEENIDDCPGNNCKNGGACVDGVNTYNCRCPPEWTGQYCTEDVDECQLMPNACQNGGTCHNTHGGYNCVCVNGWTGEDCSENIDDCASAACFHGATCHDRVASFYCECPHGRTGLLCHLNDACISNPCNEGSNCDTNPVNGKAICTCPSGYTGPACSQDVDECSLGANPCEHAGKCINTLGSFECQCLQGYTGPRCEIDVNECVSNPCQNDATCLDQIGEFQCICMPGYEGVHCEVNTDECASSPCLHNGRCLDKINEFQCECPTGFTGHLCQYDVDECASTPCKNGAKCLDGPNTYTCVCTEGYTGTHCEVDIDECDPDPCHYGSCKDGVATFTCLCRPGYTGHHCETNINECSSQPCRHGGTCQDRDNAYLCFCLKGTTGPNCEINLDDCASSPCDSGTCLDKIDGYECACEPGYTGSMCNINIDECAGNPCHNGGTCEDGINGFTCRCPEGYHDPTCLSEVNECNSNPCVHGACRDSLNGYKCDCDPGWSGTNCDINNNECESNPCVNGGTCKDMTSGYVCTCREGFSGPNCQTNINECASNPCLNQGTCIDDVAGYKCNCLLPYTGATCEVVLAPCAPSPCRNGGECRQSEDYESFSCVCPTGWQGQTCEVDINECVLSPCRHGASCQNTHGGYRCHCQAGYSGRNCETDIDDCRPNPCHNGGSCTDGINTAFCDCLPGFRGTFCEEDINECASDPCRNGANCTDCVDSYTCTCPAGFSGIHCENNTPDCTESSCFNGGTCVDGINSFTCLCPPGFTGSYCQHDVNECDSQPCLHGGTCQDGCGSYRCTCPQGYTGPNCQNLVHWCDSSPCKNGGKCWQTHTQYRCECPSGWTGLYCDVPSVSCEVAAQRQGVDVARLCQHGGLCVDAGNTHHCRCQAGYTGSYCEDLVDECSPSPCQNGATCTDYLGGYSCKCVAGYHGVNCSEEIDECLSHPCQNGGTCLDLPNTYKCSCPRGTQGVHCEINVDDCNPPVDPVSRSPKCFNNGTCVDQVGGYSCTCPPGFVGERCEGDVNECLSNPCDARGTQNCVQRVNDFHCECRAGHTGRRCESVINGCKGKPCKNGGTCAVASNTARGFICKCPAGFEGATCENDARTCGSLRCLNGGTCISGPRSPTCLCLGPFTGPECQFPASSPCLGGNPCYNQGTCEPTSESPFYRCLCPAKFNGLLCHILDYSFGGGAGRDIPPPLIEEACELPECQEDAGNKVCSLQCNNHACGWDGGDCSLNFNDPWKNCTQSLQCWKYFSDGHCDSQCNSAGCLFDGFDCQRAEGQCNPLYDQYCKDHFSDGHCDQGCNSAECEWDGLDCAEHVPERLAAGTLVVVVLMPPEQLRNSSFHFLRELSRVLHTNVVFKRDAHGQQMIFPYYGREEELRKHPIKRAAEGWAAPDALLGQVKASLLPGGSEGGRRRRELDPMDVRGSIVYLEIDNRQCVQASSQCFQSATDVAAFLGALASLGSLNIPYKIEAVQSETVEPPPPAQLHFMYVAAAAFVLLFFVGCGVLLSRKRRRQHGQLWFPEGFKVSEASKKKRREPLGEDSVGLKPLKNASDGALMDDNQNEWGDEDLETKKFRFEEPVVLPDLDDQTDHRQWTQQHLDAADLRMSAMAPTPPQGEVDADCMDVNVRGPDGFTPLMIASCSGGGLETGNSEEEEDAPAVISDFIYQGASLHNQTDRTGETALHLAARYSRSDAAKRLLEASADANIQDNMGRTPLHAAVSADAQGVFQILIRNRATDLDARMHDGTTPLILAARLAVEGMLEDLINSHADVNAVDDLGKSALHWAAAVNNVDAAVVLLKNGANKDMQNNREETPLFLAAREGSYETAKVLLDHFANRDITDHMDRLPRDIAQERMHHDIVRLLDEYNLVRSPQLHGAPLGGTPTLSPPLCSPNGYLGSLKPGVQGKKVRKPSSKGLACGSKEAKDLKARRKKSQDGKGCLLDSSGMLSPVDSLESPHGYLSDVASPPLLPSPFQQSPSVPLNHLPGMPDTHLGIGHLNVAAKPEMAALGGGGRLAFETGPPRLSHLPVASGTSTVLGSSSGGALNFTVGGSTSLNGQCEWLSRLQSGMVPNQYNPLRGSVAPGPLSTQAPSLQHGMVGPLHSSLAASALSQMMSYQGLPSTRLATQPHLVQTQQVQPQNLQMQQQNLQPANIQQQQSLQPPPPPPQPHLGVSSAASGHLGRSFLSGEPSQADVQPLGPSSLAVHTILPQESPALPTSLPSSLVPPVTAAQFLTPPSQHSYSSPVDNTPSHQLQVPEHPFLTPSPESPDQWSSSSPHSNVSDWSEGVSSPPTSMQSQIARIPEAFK
UniProt Q9UM47, 40-2321 limits assumed: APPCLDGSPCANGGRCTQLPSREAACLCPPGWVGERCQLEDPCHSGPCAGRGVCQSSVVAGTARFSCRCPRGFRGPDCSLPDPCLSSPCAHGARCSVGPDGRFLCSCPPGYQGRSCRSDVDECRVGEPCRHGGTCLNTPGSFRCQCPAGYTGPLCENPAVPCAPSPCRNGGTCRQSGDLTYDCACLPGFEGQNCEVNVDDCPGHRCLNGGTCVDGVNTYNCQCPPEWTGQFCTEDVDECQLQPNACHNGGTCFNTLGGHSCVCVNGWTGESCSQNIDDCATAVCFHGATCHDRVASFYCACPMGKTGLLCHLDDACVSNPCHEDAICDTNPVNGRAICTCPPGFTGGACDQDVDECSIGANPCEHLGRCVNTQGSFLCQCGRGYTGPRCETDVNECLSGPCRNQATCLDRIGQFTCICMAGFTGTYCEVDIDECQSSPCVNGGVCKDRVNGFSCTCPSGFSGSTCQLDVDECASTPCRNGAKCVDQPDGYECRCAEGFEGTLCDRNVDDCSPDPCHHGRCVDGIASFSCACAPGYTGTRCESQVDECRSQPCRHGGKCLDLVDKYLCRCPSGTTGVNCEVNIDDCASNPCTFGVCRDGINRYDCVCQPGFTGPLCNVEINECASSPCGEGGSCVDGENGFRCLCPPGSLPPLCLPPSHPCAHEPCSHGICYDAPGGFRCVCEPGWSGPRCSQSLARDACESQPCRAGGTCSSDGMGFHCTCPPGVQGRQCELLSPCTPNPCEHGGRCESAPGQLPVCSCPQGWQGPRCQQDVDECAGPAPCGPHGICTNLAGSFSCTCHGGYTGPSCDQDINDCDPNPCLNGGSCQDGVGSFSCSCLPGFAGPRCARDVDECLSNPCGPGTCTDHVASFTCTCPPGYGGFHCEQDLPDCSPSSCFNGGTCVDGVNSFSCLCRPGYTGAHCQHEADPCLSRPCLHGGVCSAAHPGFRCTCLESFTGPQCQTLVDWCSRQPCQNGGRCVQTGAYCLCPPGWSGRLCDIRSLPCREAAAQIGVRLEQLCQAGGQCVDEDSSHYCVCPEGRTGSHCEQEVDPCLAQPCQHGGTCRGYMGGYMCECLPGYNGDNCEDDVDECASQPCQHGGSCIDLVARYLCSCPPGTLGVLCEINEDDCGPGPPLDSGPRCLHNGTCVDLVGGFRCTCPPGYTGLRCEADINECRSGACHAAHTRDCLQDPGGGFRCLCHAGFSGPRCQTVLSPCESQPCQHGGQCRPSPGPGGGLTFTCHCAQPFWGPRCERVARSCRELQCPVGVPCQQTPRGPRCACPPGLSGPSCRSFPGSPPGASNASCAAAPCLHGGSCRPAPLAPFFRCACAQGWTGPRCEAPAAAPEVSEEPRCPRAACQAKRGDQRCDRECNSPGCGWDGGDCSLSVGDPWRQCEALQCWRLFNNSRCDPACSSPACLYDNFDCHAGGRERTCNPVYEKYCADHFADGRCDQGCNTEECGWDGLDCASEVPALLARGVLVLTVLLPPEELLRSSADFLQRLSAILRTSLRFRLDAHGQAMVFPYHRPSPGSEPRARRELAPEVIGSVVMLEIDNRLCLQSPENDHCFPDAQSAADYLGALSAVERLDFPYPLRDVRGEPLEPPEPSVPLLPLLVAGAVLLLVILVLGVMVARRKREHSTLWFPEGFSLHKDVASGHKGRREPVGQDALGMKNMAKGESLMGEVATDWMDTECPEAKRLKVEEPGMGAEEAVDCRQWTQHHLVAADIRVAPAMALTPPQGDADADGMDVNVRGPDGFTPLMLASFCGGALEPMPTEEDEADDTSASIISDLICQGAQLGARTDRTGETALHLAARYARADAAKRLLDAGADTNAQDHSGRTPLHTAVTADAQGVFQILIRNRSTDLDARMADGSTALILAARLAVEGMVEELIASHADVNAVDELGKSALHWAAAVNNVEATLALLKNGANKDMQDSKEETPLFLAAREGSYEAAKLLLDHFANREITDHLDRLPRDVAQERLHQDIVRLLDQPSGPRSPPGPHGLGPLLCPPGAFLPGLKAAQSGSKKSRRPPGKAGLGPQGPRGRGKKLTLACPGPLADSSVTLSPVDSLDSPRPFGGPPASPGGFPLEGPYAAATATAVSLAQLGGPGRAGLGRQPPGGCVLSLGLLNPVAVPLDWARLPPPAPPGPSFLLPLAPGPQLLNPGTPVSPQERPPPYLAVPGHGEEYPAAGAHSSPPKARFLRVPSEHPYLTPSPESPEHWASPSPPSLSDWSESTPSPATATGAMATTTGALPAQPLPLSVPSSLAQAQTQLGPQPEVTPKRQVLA

One experiment deals with human Notch 1 (Homo sapiens, UniProt P46531). Particulars: read-out: Notch 1 (IC50); HeLa cells co-transfected with truncated Notch 1 and CBF1 luciferase reporter; 18 hours incubation.
The target in another experiment is human Notch 3 (Homo sapiens, UniProt Q9UM47). The experiment is described as follows: Notch-CBF1 Transactivation Assay (Notch 3). In kind it is cell-based. Particulars: read-out: Notch 3 (IC50); HeLa cells co-transfected with truncated Notch 3 and CBF1 luciferase reporter; 18 hours incubation. For orientation: In a reporter assay the amount or activity of a reporter protein is the signal.

For orientation: IC50 means the concentration that inhibits the measured activity by half.

Take `Cc1cccc(C2=N[C@H](NC(=O)[C@H](CCC(F)(F)F)[C@H](CCC(F)(F)F)C(N)=O)C(=O)Nc3c(OC4CC4)cccc32)c1` [Example 15, (2R,3S)—N-((3S)-9-(Cyclopropyloxy)-5-(3-methylphenyl)-2-oxo-2,3-dihydro-1H-1,4-benzodiazepin-3-yl)-2,3-bis(3,3,3-trifluoropropyl)succinamide]: the IC50 on human Notch 1 and at human Notch 3 was 4.4 nM throughout.

As to `Cc1cccc2c1NC(=O)[C@@H](NC(=O)[C@H](CCC(F)(F)F)[C@H](CCC(F)(F)F)C(N)=O)N=C2c1cccc(Cl)c1` [Example 7, (2R,3S)—N-((3S)-5-(3-Chlorophenyl)-9-methyl-2-oxo-2,3-dihydro-1H-1,4-benzodiazepin-3-yl)-2,3-bis(3,3,3-trifluoropropyl)succinamide], the IC50 at human Notch 1 and on human Notch 3 was 4.4 nM each time.

For the compound `Cc1cccc(C2=N[C@H](NC(=O)[C@H](CCC(F)(F)F)[C@H](CCC(F)(F)F)C(N)=O)C(=O)Nc3ccccc32)c1` [Example 32, (2R,3S)—N-((3S)-5-(3-Methylphenyl)-2-oxo-2,3-dihydro-1H-1,4-benzodiazepin-3-yl)-2,3-bis(3,3,3-trifluoropropyl)succinamide], the IC50 turned out to be 6.4 nM on human Notch 1 and 6.1 nM on human Notch 3.

For `NC(=O)[C@@H](CCC(F)(F)F)[C@@H](CCC(F)(F)F)C(=O)N[C@H]1N=C(c2ccc(CO)cc2)c2ccccc2NC1=O` [Example 30, (2R,3S)—N-((3S)-5-(4-(Hydroxymethyl)phenyl)-2-oxo-2,3-dihydro-1H-1,4-benzodiazepin-3-yl)-2,3-bis(3,3,3-trifluoropropyl)succinamide], the IC50 at human Notch 1 stood at 4.3 nM; on human Notch 3, 4.2 nM.

`COc1cccc2c1NC(=O)[C@@H](NC(=O)[C@H](CCC(F)(F)F)[C@H](CCC(F)(F)F)C(N)=O)N=C2c1ccc(Cl)cc1` [Example 27, (2R,3S)—N-((3S)-5-(4-Chlorophenyl)-9-methoxy-2-oxo-2,3-dihydro-1H-1,4-benzodiazepin-3-yl)-2,3-bis(3,3,3-trifluoropropyl)succinamide]: the IC50 at human Notch 1 was 2.8 nM; on human Notch 3, 2.7 nM.

As to `Cc1cccc(C2=N[C@H](NC(=O)[C@H](CCC(F)(F)F)[C@H](CCC(F)(F)F)C(N)=O)C(=O)Nc3c2cccc3C(C)C)c1` [Example 12, (2R,3S)—N-((3S)-9-Isopropyl-5-(3-methylphenyl)-2-oxo-2,3-dihydro-1H-1,4-benzodiazepin-3-yl)-2,3-bis(3,3,3-trifluoropropyl)succinamide], the half-maximal inhibitory concentration (IC50) at human Notch 1 stood at 3 nM.

As to `Cc1ccccc1C1=N[C@H](NC(=O)[C@H](CCC(F)(F)F)[C@H](CCC(F)(F)F)C(N)=O)C(=O)Nc2ccccc21` [Example 31, (2R,3S)—N-((3S)-5-(2-Methylphenyl)-2-oxo-2,3-dihydro-1H-1,4-benzodiazepin-3-yl)-2,3-bis(3,3,3-trifluoropropyl)succinamide], the 50% inhibitory concentration (IC50) on human Notch 1 amounted to 2.8 nM.
